Source: article PMC5027585, “TSPO ligands stimulate ZnPPIX transport and ROS accumulation leading to the inhibition of P. falciparum growth in human blood” (Scientific Reports, 2016)

The chains behind the UniProt entries cited, without tags or fusion partners.
UniProt P21796, whole entry: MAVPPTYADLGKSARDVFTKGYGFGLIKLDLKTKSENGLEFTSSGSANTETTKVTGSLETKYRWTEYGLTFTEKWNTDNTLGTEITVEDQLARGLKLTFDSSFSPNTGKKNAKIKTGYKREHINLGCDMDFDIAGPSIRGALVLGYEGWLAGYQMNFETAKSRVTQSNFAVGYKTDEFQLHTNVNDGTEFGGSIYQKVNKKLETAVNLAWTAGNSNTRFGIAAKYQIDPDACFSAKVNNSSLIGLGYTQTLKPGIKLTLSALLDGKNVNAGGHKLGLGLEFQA

Biological target: Voltage Dependent Anion Channel (VDAC) (human (endogenous in red blood cells)) (UniProt P21796)
Assay: SDS-PAGE and immunoblot (SDS-resistant forms); ghosts of healthy and infected RBCs in 5P8 buffer, solubilised in 1% Triton X-100, denaturing SDS-PAGE, immunoblot; oligomeric state read from the size of the bands

Voltage Dependent Anion Channel (VDAC) (from UniProt P21796 1-283) (natural protein)
stoichiometry N: 2
